From publication PMC12836348, “Alanine Mutagenesis Identifies Specific Amino Acids of Nemertide Alpha‑1 Activity and Its Binding to Target Receptors” (Journal of Natural Products, 2025)

The chains behind the UniProt entries cited, without tags or fusion partners. Where a name states a change or a piece, a line headed by the entry shows the natural chain unless it says otherwise. A line that says so, or that is headed by a name, gives the form on record, which may keep a tag or linker.
UniProt P08104, whole entry: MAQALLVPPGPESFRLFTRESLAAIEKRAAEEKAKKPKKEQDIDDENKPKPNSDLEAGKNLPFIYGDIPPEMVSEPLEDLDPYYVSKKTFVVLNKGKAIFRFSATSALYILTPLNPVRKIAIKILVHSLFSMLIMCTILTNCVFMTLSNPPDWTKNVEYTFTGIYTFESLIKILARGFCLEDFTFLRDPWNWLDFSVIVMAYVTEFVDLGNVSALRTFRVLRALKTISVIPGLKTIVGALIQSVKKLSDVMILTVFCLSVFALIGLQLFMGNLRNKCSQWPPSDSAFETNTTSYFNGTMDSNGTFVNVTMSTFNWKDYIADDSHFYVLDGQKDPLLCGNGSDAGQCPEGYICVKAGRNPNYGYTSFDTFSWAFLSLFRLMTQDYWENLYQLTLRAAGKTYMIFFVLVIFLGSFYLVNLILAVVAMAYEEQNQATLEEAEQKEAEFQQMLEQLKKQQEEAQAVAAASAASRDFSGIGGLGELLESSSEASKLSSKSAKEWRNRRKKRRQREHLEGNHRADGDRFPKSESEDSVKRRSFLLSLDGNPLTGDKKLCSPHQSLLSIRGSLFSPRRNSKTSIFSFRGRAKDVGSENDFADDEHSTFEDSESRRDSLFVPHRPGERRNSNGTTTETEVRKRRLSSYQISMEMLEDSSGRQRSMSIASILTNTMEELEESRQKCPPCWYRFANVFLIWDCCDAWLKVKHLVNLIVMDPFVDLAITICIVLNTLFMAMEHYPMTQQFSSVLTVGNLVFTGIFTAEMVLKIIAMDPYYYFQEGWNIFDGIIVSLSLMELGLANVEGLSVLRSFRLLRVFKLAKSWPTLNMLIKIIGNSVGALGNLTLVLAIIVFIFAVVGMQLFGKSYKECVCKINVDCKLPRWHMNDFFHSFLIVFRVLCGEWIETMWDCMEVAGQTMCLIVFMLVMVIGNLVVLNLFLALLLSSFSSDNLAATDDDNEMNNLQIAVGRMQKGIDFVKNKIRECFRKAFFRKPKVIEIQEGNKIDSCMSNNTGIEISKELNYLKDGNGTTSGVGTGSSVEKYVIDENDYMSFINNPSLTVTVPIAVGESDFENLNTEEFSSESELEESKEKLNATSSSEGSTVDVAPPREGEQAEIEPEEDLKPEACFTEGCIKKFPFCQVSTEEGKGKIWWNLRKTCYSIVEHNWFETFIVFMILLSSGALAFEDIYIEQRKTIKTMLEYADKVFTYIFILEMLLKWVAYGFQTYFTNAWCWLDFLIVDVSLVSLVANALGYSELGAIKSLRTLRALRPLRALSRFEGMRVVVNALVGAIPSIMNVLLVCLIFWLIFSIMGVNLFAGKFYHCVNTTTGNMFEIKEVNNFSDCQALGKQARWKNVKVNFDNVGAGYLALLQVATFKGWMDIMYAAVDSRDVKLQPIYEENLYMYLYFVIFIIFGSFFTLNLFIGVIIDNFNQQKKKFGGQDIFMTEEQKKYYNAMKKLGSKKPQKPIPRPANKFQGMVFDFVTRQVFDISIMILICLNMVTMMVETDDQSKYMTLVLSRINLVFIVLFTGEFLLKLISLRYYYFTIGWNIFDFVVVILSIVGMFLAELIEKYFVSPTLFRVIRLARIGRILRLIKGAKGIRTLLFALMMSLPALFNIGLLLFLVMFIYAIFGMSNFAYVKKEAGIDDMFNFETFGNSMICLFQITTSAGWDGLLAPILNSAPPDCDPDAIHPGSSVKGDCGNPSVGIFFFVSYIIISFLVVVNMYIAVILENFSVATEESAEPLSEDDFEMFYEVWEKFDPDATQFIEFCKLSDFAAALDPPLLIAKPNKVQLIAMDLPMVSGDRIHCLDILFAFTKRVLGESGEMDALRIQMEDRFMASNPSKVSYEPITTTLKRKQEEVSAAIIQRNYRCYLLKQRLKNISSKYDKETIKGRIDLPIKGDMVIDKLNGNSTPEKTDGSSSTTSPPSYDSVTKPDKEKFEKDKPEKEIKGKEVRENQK
UniProt P15390, whole entry: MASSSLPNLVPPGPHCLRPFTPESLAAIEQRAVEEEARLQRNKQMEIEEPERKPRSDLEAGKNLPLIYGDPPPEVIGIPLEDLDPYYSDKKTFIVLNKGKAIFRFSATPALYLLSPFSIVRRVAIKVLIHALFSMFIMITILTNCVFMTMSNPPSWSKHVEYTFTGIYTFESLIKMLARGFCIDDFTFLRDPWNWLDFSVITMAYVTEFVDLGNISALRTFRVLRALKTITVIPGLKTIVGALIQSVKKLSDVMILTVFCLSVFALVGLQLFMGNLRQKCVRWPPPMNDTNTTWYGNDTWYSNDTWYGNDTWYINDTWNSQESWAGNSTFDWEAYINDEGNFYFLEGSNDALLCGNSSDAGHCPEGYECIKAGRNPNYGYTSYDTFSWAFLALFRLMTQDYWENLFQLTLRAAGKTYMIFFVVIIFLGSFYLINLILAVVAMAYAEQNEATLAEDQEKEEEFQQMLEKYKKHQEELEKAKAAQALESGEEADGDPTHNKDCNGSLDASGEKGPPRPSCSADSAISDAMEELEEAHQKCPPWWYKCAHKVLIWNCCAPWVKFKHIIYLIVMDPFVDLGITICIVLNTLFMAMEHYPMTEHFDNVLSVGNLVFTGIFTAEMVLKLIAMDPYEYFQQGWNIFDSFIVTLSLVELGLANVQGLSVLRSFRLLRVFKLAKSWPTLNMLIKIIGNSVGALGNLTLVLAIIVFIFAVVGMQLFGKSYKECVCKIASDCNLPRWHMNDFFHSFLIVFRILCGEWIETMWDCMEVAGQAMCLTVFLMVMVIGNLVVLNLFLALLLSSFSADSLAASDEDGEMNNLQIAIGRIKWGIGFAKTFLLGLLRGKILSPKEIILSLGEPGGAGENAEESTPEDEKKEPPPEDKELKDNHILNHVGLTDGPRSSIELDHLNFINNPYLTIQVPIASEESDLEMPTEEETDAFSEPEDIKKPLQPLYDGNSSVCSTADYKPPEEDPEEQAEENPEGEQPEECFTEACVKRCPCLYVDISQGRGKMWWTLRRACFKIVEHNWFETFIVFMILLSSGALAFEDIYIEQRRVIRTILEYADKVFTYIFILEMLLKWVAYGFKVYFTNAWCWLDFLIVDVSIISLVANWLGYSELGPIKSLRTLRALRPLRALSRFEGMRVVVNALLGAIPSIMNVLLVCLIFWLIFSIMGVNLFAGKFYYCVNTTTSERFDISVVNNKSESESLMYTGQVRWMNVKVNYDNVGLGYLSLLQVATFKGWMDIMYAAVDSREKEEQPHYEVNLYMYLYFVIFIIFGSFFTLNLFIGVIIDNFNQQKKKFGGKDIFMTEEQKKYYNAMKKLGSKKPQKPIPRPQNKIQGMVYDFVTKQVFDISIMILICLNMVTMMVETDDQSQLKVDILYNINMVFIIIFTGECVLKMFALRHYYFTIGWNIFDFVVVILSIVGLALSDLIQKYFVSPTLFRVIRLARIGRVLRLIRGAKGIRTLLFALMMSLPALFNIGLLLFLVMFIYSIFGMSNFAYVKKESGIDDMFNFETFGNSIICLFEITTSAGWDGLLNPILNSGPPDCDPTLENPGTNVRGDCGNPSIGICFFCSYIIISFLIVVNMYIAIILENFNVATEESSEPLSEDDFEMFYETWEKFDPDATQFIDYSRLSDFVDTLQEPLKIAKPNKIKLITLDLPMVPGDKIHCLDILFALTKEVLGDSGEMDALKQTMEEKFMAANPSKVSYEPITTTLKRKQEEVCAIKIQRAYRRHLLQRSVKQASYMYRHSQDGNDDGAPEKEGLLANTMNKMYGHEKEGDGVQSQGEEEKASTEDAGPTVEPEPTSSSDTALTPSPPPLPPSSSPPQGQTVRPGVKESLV
UniProt Q12809: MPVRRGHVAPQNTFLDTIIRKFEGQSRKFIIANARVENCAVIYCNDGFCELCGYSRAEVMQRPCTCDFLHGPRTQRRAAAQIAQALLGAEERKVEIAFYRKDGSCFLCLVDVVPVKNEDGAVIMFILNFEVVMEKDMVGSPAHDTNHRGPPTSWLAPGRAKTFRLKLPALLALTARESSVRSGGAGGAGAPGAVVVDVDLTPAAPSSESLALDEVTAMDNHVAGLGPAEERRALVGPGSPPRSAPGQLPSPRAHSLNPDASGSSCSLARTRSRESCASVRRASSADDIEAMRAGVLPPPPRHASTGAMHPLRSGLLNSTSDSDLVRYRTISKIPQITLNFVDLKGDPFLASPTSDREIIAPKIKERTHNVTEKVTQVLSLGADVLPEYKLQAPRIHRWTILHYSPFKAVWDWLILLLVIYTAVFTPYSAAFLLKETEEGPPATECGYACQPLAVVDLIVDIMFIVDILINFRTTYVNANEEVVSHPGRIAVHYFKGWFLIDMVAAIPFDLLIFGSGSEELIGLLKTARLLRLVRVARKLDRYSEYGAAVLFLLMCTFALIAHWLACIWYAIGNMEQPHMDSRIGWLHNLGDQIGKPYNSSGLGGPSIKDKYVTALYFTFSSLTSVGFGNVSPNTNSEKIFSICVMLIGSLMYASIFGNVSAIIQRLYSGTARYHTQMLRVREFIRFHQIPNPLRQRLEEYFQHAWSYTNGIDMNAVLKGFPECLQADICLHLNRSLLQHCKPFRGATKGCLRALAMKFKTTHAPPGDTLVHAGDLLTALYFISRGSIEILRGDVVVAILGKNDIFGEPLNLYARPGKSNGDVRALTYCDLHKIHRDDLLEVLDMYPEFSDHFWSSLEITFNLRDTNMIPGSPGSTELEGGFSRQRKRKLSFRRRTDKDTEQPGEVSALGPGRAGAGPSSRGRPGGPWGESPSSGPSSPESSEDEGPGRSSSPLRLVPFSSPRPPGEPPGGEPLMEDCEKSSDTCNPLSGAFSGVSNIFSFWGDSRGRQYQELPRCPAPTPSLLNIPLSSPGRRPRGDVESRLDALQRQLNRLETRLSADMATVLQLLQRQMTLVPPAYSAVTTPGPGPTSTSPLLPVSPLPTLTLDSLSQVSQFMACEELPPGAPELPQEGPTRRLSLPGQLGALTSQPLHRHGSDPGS
UniProt P08510, with tags, fused parts or gaps DEL6-46: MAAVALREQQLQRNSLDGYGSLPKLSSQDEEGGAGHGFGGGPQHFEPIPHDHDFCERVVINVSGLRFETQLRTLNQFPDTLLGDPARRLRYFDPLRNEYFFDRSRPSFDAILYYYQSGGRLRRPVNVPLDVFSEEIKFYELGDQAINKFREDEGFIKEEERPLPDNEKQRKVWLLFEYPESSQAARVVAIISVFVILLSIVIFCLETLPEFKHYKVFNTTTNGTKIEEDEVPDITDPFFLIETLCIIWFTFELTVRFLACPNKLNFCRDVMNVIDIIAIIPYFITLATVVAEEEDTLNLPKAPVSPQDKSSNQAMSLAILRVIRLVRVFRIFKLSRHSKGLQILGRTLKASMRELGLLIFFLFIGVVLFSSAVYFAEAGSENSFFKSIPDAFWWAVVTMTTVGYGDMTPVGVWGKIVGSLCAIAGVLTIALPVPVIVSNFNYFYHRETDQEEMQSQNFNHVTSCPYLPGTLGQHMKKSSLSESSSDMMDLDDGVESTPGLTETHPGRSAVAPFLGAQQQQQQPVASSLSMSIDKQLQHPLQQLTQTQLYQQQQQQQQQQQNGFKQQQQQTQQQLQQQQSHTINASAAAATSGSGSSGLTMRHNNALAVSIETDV

Legend:
[1] = tested on: BgNav1; test: Two-electrode voltage clamp, BgNav1 expressed in Xenopus laevis oocytes; format: cell-based, Blattella germanica; settings: ex vivo, I30ms/Ipeak, Hill fit, n ≥ 3, highest tested concentration 50 μM
[2] = target: T1, rNaV1.3 (Rattus norvegicus, UniProt P08104); test: Two-electrode voltage clamp, Nav1.3 in Xenopus laevis oocytes; format: cell-based; settings: ex vivo, Hill fit, n ≥ 3, highest tested concentration 50 μM
T1 construct: expressed in transfected cells; host or cells: Xenopus laevis oocytes (cRNA injection)

[3] = target: T2, rNaV1.4 (Rattus norvegicus, UniProt P15390); test: Two-electrode voltage clamp, Nav1.4 in Xenopus laevis oocytes; format: cell-based; settings: ex vivo, Hill fit, n ≥ 3, highest tested concentration 50 μM
T2 construct: expressed in transfected cells; host or cells: Xenopus laevis oocytes (cRNA injection)

[4] = tested on: Kv1.6; test: Ion channel panel, Kv1.6; format: cell-based; design: key: “+” means tested and produced effect; “–“ means tested but no effect; settings: S12A at 5 μM; Xenopus oocytes, n ≥ 3
From the text: (§1) To assess the concentration–response relationships, data were fitted with the Hill equation: y = 100/[1 + (EC50/[toxin])^ h ], where y is the amplitude of the toxin-induced effect (y = I 30 ms/I peak where I 30 ms is the current value at 30 ms in the presence of toxin and I peak is the peak current amplitude in control conditions), EC50 is the toxin concentration at half-maximal efficacy, [toxin] is the toxin concentration, and h is the Hill coefficient. Potassium and calcium currents were evoked by a 500 ms depolarization to the voltage corresponding to the maximal activation of the channels in control conditions from a holding potential of −90 mV. Elicited currents were sampled at 1 kHz and filtered at 0.5 kHz. […] ASIC1a currents were measured in ND96 solutions at a pH of 7.4 and 4.5, at a holding potential of −70 mV during 400 s, and the data were filtered at 20 Hz. EnaC currents were measured by clamping oocytes at a holding potential of −60 mV and perfusing with low- (1 mM) and high- (96 mM) sodium ND96. Opioid currents were measured by clamping the potential to −70 mV and changing the perfusion solution from ND96 to high-potassium (HK) solution composed of 96 mM KCl, 2 mM NaCl, 1 mM MgCl2, 1.8 mM CaCl2, and 5 mM HEPES, with a final pH of 7.5. […] TRPV1 and TRPA1 currents were continuously monitored in a perfusing ND96 solution, following a protocol at −90 mV for 400 s. […]

[5] = tested on: Kv2.1; test: Ion channel panel, Kv2.1; format: cell-based; design: key: “+” means tested and produced effect; “–“ means tested but no effect; settings: S12A at 5 μM; Xenopus oocytes, n ≥ 3
From the text: as §1

[6] = tested on: Kv10.1; test: Ion channel panel, Kv10.1; format: cell-based; design: key: “+” means tested and produced effect; “–“ means tested but no effect; settings: S12A at 5 μM; Xenopus oocytes, n ≥ 3
From the text: as §1

[7] = target: Kv11.1 (hERG) (Homo sapiens, UniProt Q12809); test: Ion channel panel, Kv11.1 (hERG); format: cell-based; design: key: “+” means tested and produced effect; “–“ means tested but no effect; settings: S12A at 5 μM; Xenopus oocytes, n ≥ 3
From the text: as §1

[8] = target: Shaker IR (Drosophila melanogaster, UniProt P08510, DEL6-46); test: Ion channel panel, Shaker IR; format: cell-based; design: key: “+” means tested and produced effect; “–“ means tested but no effect; settings: S12A at 5 μM; Xenopus oocytes, n ≥ 3
From the text: as §1

[9] = tested on: α4β4; test: Ion channel panel, nAChR α4β4; format: cell-based; design: key: “+” means tested and produced effect; “–“ means tested but no effect; settings: S12A at 5 μM, oocytes at −70 mV, 5 min incubation, n ≥ 3
From the text: as §1

[10] = tested on: α7; test: Ion channel panel, nAChR α7; format: cell-based; design: key: “+” means tested and produced effect; “–“ means tested but no effect; settings: S12A at 5 μM, oocytes at −70 mV, 5 min incubation, n ≥ 3
From the text: as §1

[11] = tested on: α9α10; test: Ion channel panel, nAChR α9α10; format: cell-based; design: key: “+” means tested and produced effect; “–“ means tested but no effect; settings: S12A at 5 μM, oocytes at −70 mV, 5 min incubation, n ≥ 3
From the text: as §1

Question: For `CC[C@H](C)[C@@H]1NC(=O)[C@@H](NC(=O)CN)CSSC[C@@H]2NC(=O)[C@@H]3CSSC[C@@H](C(=O)N[C@@H](CC(N)=O)C(=O)N4C[C@H](O)C[C@H]4C(=O)N4C[C@H](O)C[C@H]4C(=O)N[C@@H](CC(N)=O)C(=O)N[C@@H](CCC(N)=O)C(=O)O)NC(=O)[C@H](CCCCN)NC(=O)[C@H](Cc4ccccc4)NC(=O)[C@H](CC(N)=O)NC(=O)[C@H](Cc4c[nH]c5ccccc45)NC(=O)CNC(=O)[C@H](CSSC[C@H](NC(=O)[C@H](Cc4ccccc4)NC(=O)[C@H](CO)NC(=O)CNC(=O)[C@H]([C@@H](C)O)NC(=O)[C@H](C)NC1=O)C(=O)N[C@@H]([C@@H](C)O)C(=O)N[C@@H](CC(C)C)C(=O)N[C@@H](C)C(=O)N[C@@H](CCCCN)C(=O)NCC(=O)N3)NC(=O)[C@H](CC(N)=O)NC(=O)[C@H](CCCCN)NC(=O)[C@H]([C@@H](C)O)NC2=O` [Peptide S12A], which EC50 [1] is on record?
Answer: 281 ± 75 nM

Question: What about the “EC50 Nav1.3” value [2] of the same compound?
Answer: no detectable activity

Question: What about the “EC50 Nav1.4” value [3] of the same compound?
Answer: no detectable activity

Question: What about the “effect on Kv1.6” value [4] of the same compound?
Answer: –

Question: What about the “effect on Kv2.1” value [5] of the same compound?
Answer: –

Question: What about the “effect on Kv10.1” value [6] of the same compound?
Answer: –

Question: What about the “effect on Kv11.1 (hERG)” value [7] of the same compound?
Answer: –

Question: What about the “effect on Shaker IR” value [8] of the same compound?
Answer: –

Question: And the “effect on α4β4” value [9]?
Answer: –

Question: And the “effect on α7” value [10]?
Answer: –

Question: And the “effect on α9α10” value [11]?
Answer: –
